Earlier results on one substance are cited in US7919620B2, “Agent for suppressing blood pressure elevation” (Coral Biotech Kabushiki Kaisha, priority 2005, dated 2011).

The conditions of data set [1]: 8 healthy volunteers, cited from earlier work.
The conditions of data set [2]: human subjects, cited from earlier work.
The conditions of data set [3]: room temperature, atmospheric pressure; cited from earlier work.
The conditions of data set [4]: rat, delivered into the heart, cited from earlier work.

Regarding orthosilicic acid, in data set [1] (aqueous solution 27-55 ppm), the “Ingested orthosilicic acid absorbed” value was 50.3% and the “Ingested orthosilicic acid absorbed, range (n=8)” value is 21.9-74.7%. Moreover, in data set [1], the “Renal clearance of Si” value is 82 to 96 mL/min. The “Absorbed and detected in the blood” value in data set [2] (32Si(OH)4) is recorded as 36%. Moreover, in data set [2], the “Remaining share of the absorbed compound excreted, second phase” value is 10%; the “Share of the absorbed compound excreted into urine, first phase” value was 90%; the “T1/2 of excretion, second phase (remaining 10%)” value was 11.3 h; the “T1/2 of urinary excretion, first phase (90% of absorbed)” value was 2.7 h. In addition, the “Time after which absorbed Si was completely removed” value in data set [2] was 48 h. In data set [3], the “Concentration at which the compound spontaneously polymerizes” value was no less than 2000 µM. For the same substance, the “Delivered amount excreted in urine” value in data set [4] (within 4 hours) is given as 77±12%. In data set [4], the “Distribution to the brain” value is recorded as “little found in the brain” and the “Protein binding / form present” value was “present mostly in its free form with no proteins bound to it”.
